# Test system: C[S+](CC[C@H](N)C(=O)O)C[C@H]1O[C@@H](n2cnc3c(N)ncnc32)[C@H](O)[C@@H]1O
# Test: purified protein
# Conditions: 0.5 mM 10 (FC H), 50 mM HEPES pH 7.5, 30°C
substance,measurement,value
methyltransferase (Orf8) (Diaporthe amygdali),Km,56 ± 6.0 µM
same,kcat,0.043±0.0016 S^−1
